According to ChEMBL document CHEMBL5346864, “Identification of L. infantum trypanothione synthetase inhibitors with leishmanicidal activity from a (non-biased) in-house chemical library” (Eur J Med Chem, 2022):

Tests used:
Leishmania infantum [1] = details: MCAN/ES/89/IPZ229/1/89, dose 4.0 µM, time 30.0 min
Leishmania infantum [2] = details: MCAN/ES/89/IPZ229/1/89, dose 8.3 µM, time 30.0 min
Leishmania infantum [3] = details: MCAN/ES/89/IPZ229/1/89, dose 4.8 µM, time 30.0 min
Leishmania infantum [4] = details: MCAN/ES/89/IPZ229/1/89, dose 5.8 µM, time 30.0 min
Leishmania infantum [5] = details: MCAN/ES/89/IPZ229/1/89, dose 6.9 µM, time 30.0 min

Km (Leishmania infantum [1]): 49.8 µM
Km (Leishmania infantum [2]): 312 µM
Km (Leishmania infantum [3]): 68.9 µM
Km (Leishmania infantum [4]): 76.1 µM
Km (Leishmania infantum [5]): 66.1 µM
Structure (SMILES): CCCCCCCCCCCCCCOc1ccc(C[N+](C)(C)C2CCCC2)cc1OC
